{"source": "patent US9750809B2", "about": "“Cancer treatment” (MOREX DEVELOPMENT PARTNERS LLP, priority 2012, dated 2017)", "assay": "Boron biodistribution in tissues of SCCVII tumour-bearing mice given MTL005 (DCP-AES)", "details": "irradiated mice (32 Gy), 150 mg/kg i.p., FIG. 1", "method": "Direct current plasma-atomic emission spectroscopy [DCP-AES] (ARL/Fisons Model SS-7) was used (detection limit: 0.1 μg B/mL) to determine boron concentrations in tissues of individual mice. Samples (50-130 mg) were digested at 60° C. with sulfuric acid:nitric acid (1:1). Triton X-100 and water were added to give final concentrations of ˜50 mg tissue/mL, 15% total acid v/v and 5% Triton X-100 v/v. […] It is known that the ether linkages between the porphyrin and carborane cages remain intact in vivo.", "data": [{"substance": "copper meso-5,15-bis[3-[(1,2-dicarba-closo-dodecaboranyl)methoxy]phenyl]-meso-10,20-dinitroporphyrin [MTL005]", "values": [{"measurement": "Boron concentrations from livers at time of euthanasia", "setting": "40-62 days post irradiation", "value": "135 to 207", "unit": "µg"}, {"measurement": "Tumour boron concentration at time of euthanasia", "setting": "constant over the time period (40-62 days post irradiation)", "value": "9 to 22", "unit": "µg/g"}]}]}
